Vif imaging – blocks HIV Vif function. HEK293T cells, Vif self-association by quenched fluorescence, imaging, 24 h. inhibition, % at 7.49 µM. 0.35% of 340,000 active. AID 602346; in the data active means inhibition above about 50%, passing the limit was not always enough
Yeast UUG start – yeast start codon fidelity modulation | S. cerevisiae UUG-firefly luciferase reporter, luminescence/redox ratio | activity score, % at 18.7 µM | 0.13% of 350,000 active | AID 602363;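 active means replicate mean at a twofold rise or more, about +100% in these data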;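 further: firefly luciferase made from a UUG start codon reports start codon fidelity; reporter light over untreated wells divided by growth signal over untreated wells; some hits fall short of that in this replicate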
CAL PDZ FP-1 – blocks peptide binding to the human CAL PDZ domain. Q9HD26. purified CAL PDZ, TMR-peptide fluorescence polarization, 1 h. inhibition, % at 24.9 µM. 0.92% of 300,000 active. AID 602252;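 active means mean inhibition of at least 30% with at least half of replicates also reaching 30%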;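 further: 0% = DMSO neutral control and 100% = excess unlabeled competitor peptide PRC23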
ARNT-TACC3 inh – disrupts binding between human ARNT and TACC3; inhibition, % at 9.99 µM; AlphaScreen His-ARNT PAS-B/GST-TACC3 binding, luminescence; TACC3 fragment carries E629A point mutation; 0.66% of 390,000 active; AID 623870; Q9Y6A5;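 active means mean inhibition of replicates at least 50% and at least half of replicates each reaching 50%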;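 further: 0% = complete ARNT plus TACC3 wells and 100% = ARNT alone without TACC3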
CAL PDZ FP-2 – inhibitors of human CAL PDZ peptide binding; Q9HD26; purified CAL PDZ, TMR-peptide fluorescence polarization, 1 h; inhibition, % at 20 µM; 0.02% of 330,000 active; AID 504414;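 active means highest replicate inhibition of at least 40%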;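 further: plate controls were DMSO neutral control wells for no effect and unlabeled competitor peptide control wells for full effect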
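material = purified tagged CAL PDZ domain construct (CerCALP) | compound dosing = 20 µM, one dose | times = 1 h at RT | measured by = fluorescence polarization from S- and P-plane intensities, G-factor corrected | read-out = inhibition from polarization loss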
PglD DTNB – PglD (C. jejuni) enzyme inhibition; purified PglD enzyme, DTNB colorimetric CoA detection; inhibition, % at 12.5 µM; 0.098% of 360,000 active; AID 602405; in the data active means inhibition above about 16%, passing the limit was not always enough
AlphaScreen ctr – counter-screen for ARNT/TACC3 inhibitors: AlphaScreen artifacts. shares compounds with ARNT-TACC3 inh. His-ARNT PASB-GST AlphaScreen artifact counter-screen, luminescence. AC50, µM (titrated, usually from 68 µM), for the others: at the highest dose activity change, negative = signal decrease. 50% of 1,200 active. AID 651705;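 active means every separate test run was called active for a drop in luminescence, with AC50 within twice the top valid dose, actives reach about 71 µM in these data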
* hit, by the source's call; x = no result given; [ ] = remark or other dose. Most compounds without a hit are left out; they make up all but 1.6% or so of the library.

Values run as follows: Vif imaging | Yeast UUG start | CAL PDZ FP-1 | ARNT-TACC3 inh | CAL PDZ FP-2 | PglD DTNB | AlphaScreen ctr
> C[C@H]1CN([C@@H](C)CO)C(=O)Cc2cc(NC(=O)Nc3ccc(C(F)(F)F)cc3)ccc2O[C@H]1CN(C)Cc1ccc2c(c1)OCO2
 : x | 3 | x | 1 | x | -2 | x
> Cc1ncc(CO)c(/C=N/NC(=O)c2cc(Br)ccc2O)c1O
 : 8 | x | x | 62* | 1 | x | 47µM*
> Cc1cc(C(=O)N/N=C/c2c(CO)cnc(C)c2O)c2ccccc2n1
 : 4 | -28 | -4 | 61* | -3 | -3 | 20µM*
> Cc1ncc(CO)c(/C=N/Nc2cccc(Cl)n2)c1O
 : 14 | -4 | -6 | 13 | -1 | -6 | x
> C[C@@H]1CN([C@@H](C)CO)C(=O)c2cc(NS(C)(=O)=O)ccc2O[C@H]1CN(C)C(=O)NC1CCCCC1
 : x | -16 | x | -1 | x | 6 | x
> O=C(NNc1ccccn1)C(=O)NNS(=O)(=O)c1ccc(Cl)cc1
 : -1 | -29 | x | 58* | -3 | 1 | -6%
> CC(C)C#Cc1ccc2c(c1)O[C@@H](CN(C)C(=O)CN(C)C)[C@@H](C)CN([C@@H](C)CO)S2(=O)=O
 : x | 11 | x | 99* | x | 2 | -13%[38 µM]
> O=C(Oc1c(CN2CCOCC2)cc(Cl)c2cccnc12)c1ccccc1Br
 : 9 | -10 | 4 | 63* | 0 | 2 | 33µM*
> COc1ccccc1N1CCN(Cc2ccc(O)c3ncccc23)CC1
 : x | -33 | x | 70* | 0 | -2 | 2.8µM*
> COCc1cc(CN2CCN(C)CC2)c(O)c2ncccc12
 : 11 | -36 | -1 | 67* | 0 | 1 | 10µM*
> COc1ccccc1N1CCN(Cc2ccc(OC)c(OC)c2OC)CC1
 : -7 | -9 | 1 | 3 | -1 | 2 | x
> Oc1c(CN2CCN(c3ccccc3)CC2)cc(Br)c2cccnc12
 : -9 | -26 | 4 | 59* | -1 | -1 | 2.4µM*
> Oc1c(CN2CCOCC2)cc(COCc2ccccc2)c2cccnc12
 : 1 | -40 | -5 | 56* | -2 | 2 | 4µM*
> Cc1cc(OCc2cccc(Cl)c2)c(C)cc1CN1CCOCC1
 : -2 | -12 | -2 | -9 | -2 | 9 | x
> C[C@@H]1CN([C@H](C)CO)C(=O)c2cc(-c3ccc(F)cc3)cnc2O[C@@H]1CN(C)Cc1cncnc1
 : x | -4 | x | -18 | x | 1 | x
> CN1C(=O)c2cc(NC(=O)c3ccccc3Cl)ccc2OC[C@H]2O[C@@H](CC(=O)O)CC[C@@H]21
 : x | -1 | x | -4 | x | 0 | x
> COc1ccc(-c2cnc3c(c2)C(=O)N([C@@H](C)CO)C[C@@H](C)[C@@H](CN(C)Cc2cccnc2)O3)cc1
 : x | 0 | x | 85* | x | 2 | -5%[38 µM]
> COc1ccc(-c2cnc3c(c2)C(=O)N([C@@H](C)CO)C[C@H](C)[C@@H](CN(C)Cc2cccnc2)O3)cc1
 : x | 2 | x | 108* | x | 0 | -7%[38 µM]
> COc1ccc(-c2cnc3c(c2)C(=O)N([C@@H](C)CO)C[C@H](C)[C@H](CN(C)Cc2cccnc2)O3)cc1
 : x | -6 | x | -10 | x | 0 | x
> COc1ccc(-c2cnc3c(c2)C(=O)N([C@H](C)CO)C[C@H](C)[C@H](CN(C)Cc2cccnc2)O3)cc1
 : x | 7 | x | 104* | x | 3 | 4%[42 µM]
> O=C(c1cccnc1)N1CCCCN2[C@H](C1)[C@H](c1ccc(C#Cc3ccccn3)cc1)[C@@H]2CO
 : x | 37 | x | 26 | x | 3 | x
> O=C1c2cccnc2C(=O)N1Cc1ccc(S(=O)(=O)NCc2ccco2)s1
 : 19 | -10 | -2 | 57* | -3 | 2 | -8%
> CC(C)NC(=O)N(C)C[C@@H]1Oc2ccc(NC(=O)Nc3ccc(C(F)(F)F)cc3)cc2C(=O)N([C@H](C)CO)C[C@@H]1C
 : x | -5 | x | 1 | x | 7 | x
> CC(=O)N(C)C[C@@H]1Oc2cc(C#Cc3ccccc3)ccc2S(=O)(=O)N([C@H](C)CO)C[C@@H]1C
 : x | 12 | x | 3 | x | 0 | x
> O=C(C[C@H]1C[C@H]2c3cc(NC(=O)NC4CCCCC4)ccc3O[C@H]2[C@H](CO)O1)NCc1ccccn1
 : x | -8 | x | -6 | x | -1 | x
> Cn1nc(-c2ccccn2)nc2c(=O)n(C)c(=O)nc1-2
 : -29 | -79 | -2 | 67* | 0 | 6 | -1%
> CC(C)C(=O)Nc1ccc2c(c1)C(=O)N(C)[C@@H]1CC[C@@H](CC(=O)N[C@H](C)c3ccccc3)O[C@@H]1CO2
 : x | 11 | x | -3 | x | 0 | x
> CCCC(=O)NC(c1ccccc1)c1ccc2cccnc2c1O (stereo not drawn)
 : 8 | -4 | x | 61* | 0 | 7 | 28µM*
> CCCCC(=O)NC(c1ccc(C(C)C)cc1)c1ccc2cccnc2c1O (stereo not drawn)
 : -15 | -5 | -2 | -13 | -1 | -5 | x
> CCCCC(=O)NC(c1cccc([N+](=O)[O-])c1)c1ccc2cccnc2c1O (stereo not drawn)
 : 0 | -26 | -3 | 61* | -1 | 0 | 8.1µM*
> CC(C)NC(=O)N[C@H]1CC[C@H](CCN)O[C@H]1CO
 : x | x | x | 5 | x | -7 | x
> C[C@H](CO)N1C[C@H](C)[C@@H](CN(C)Cc2ccc(-c3ccccc3)cc2)Oc2ncc(C#CCN(C)C)cc2C1=O
 : x | 10 | x | 2 | x | 1 | x
> Cc1[nH][nH]c(=O)c1C(c1c(C)[nH][nH]c1=O)c1cn(Cc2cccc3ccccc23)c2ccccc12
 : 1 | -28 | -2 | 26* | 0 | -2 | 46µM*
> CC1CCCC(C)N1/N=C/c1ccc([N+](=O)[O-])cc1 (stereo not drawn)
 : 3 | -11 | -4 | 51* | x | -2 | 24µM*
> C#CCOCCOCCOCCNc1nc(N2CCN(C(=O)[C@H]([C@@H](C)CC)n3cc([C@@H](N)CO)nn3)CC2)nc(N2CCN(C(=O)[C@H](Cc3ccc(O)cc3)n3cc([C@@H](N)CC(C)C)nn3)CC2)n1
 : -2 | 52 | 0 | 9 | -1 | -1 | x
> C#CCOCCOCCOCCNc1nc(N2CCN(C(=O)[C@H](CCCCN)n3cc(CN)nn3)CC2)nc(N2CCN(C(=O)[C@H](CCCCN)n3cc([C@@H](N)CC(N)=O)nn3)CC2)n1
 : 0 | 84 | 1 | 36 | 1 | -8 | x
> C#CCOCCOCCOCCNc1nc(N2CCN(C(=O)[C@H](CCCCN)n3cc([C@@H](N)CO)nn3)CC2)nc(N2CCN(C(=O)[C@H](Cc3ccc(O)cc3)n3cc([C@@H](N)CC(C)C)nn3)CC2)n1
 : 3 | 16 | -3 | 38* | 0 | 3 | -17%

Profiles from above. Order of screens: Vif imaging	Yeast UUG start	CAL PDZ FP-1	ARNT-TACC3 inh	CAL PDZ FP-2	PglD DTNB	AlphaScreen ctr
CC(C)NC(=O)N[C@H]1CC[C@H](CCN)O[C@H]1CO as listed: x	x	x	5	x	-7	x
CC1CCCC(C)N1/N=C/c1ccc([N+](=O)[O-])cc1 (stereo not drawn) as listed: 3	-11	-4	51*	x	-2	24µM*
C[C@H](CO)N1C[C@H](C)[C@@H](CN(C)Cc2ccc(-c3ccccc3)cc2)Oc2ncc(C#CCN(C)C)cc2C1=O as listed: x	10	x	2	x	1	x
C#CCOCCOCCOCCNc1nc(N2CCN(C(=O)[C@H](CCCCN)n3cc(CN)nn3)CC2)nc(N2CCN(C(=O)[C@H](CCCCN)n3cc([C@@H](N)CC(N)=O)nn3)CC2)n1 as listed: 0	84	1	36	1	-8	x
